From patent publication US11099177B2, “Protein kinase allostery sensor and methods of making and using same” (REGENTS OF THE UNIVERSITY OF MINNESOTA, priority 2016, dated 2021)

Columns and labels:
[1] = target: T1, Aurora A (AurA) (Homo sapiens, UniProt O14965, C290S/C393S/L225C/T287C); experiment: Time-resolved FRET ligand titration with labeled AurA (Example 1); type: binding; conditions: TR-FRET, ligand added to labeled AurA
T1 construct: human Aurora A, residues 122-403, containing an N-terminal hexahistidine tag; hexahistidine (N); made in house; host or cells: E. coli BL21-DE3-RIL
T1 sequence (O14965 122-403 L225C/T287C/C290S/C393S): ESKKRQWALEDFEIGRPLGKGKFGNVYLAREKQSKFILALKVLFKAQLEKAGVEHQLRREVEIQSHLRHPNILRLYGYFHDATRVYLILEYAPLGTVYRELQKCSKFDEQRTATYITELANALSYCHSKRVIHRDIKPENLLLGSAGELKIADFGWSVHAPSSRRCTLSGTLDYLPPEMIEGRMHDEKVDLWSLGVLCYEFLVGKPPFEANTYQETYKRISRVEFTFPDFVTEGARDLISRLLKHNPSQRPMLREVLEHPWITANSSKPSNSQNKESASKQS
Description: The resulting data were analyzed as described in Muretta et al. (Proc Natl Acad Sci USA, 2015, 112(47):14593-8). Results obtained with both methods were similar.
Direct waveform recording experiments were performed in a 384 well plate, and measurement was performed using a NovaFluor fluorescence lifetime plate reader (Fluorescence Innovations, Inc., Minneapolis, Minn.). Details of this instrument can be found in Cornea et al. (J Biomol Screen, 2013, 18:97-107). Experiments were performed at 50 nM AurA in ADP Quest Assay buffer+1% DMSO.
TCSPC experiments were performed using a spectrometer built by the group of Dr. David D. Thomas. Details of the instrument and analysis have been previously described in Agafonov et al. (Proc Natl Acad Sci, 2009, 106(51):21625-21630). Experiments were performed at 100 nM to 200 nM AurA in ADP Quest Assay buffer+1% DMSO.

[2] = target: T2, Aurora A (AurA) (Homo sapiens, UniProt O14965, C290S/C393S/L225C/S284C); experiment: Time-resolved FRET lifetime assay, AurA biosensor labeled at L225C/S284C, 384-well plates; conditions: unphosphorylated AurA in the presence of TPX2, no inhibitor
T2 sequence (O14965 122-403 L225C/S284C/C290S/C393S): T1 sequence (O14965 122-403 L225C/T287C/C290S/C393S) with S163C, C166T
T2 sequence (Q9ULW0 1-43 partner): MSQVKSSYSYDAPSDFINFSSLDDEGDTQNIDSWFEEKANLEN

[3] = target: T3, Aurora A (AurA) (Homo sapiens, UniProt O14965, C290A/C393S/L225C/S284C); experiment: as above; conditions: phosphorylated AurA in the presence of TPX2, no inhibitor
T3 sequence (O14965 122-403 L225C/S284C/C290A/C393S): T1 sequence (O14965 122-403 L225C/T287C/C290S/C393S) with S163C, C166T, S169A
T3 sequence (Q9ULW0 1-43 partner): T2 sequence (Q9ULW0 1-43 partner)

inter-dye distance [2]: 48 angstroms | inter-dye distance [3]: 52 angstroms
Substance: TPX2: AurA-specific activator peptide, synthetic construct of human TPX2 residues 1-43
change in average fluorescence lifetime [1]: increase in average fluorescence lifetime

Substitutions are numbered along the chain they refer to.
